Shown are actives, neighbours in structure and some others; about 16% of the full set was active somewhere.
TDP1 inh = blocks human tyrosyl-DNA phosphodiesterase 1; recombinant TDP1, AlphaScreen DNA substrate cleavage; Potency, µM (doses to about 130 µM), usual class: inhibitors; actives 0.28% (n = 350,000); further: nearly all actives have a fitted effect of over 40% in size
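Enzyme-compound mixtures sat 15 min at room temperature, followed by a 5 min reaction with 15 nM final substrate and 10 min with AlphaScreen beads. Recombinant human Tdp1 was used at 1 nM final.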
DT40 TDP1 CPT = growth inhibition of DT40 Tdp1-/-;hTDP1 cells with camptothecin (screen for TDP1 inhibitors); chicken DT40 Tdp1-/-;hTDP1 cells + 20 nM CPT, ATP luminescence, 48 h; Potency, µM (doses to about 46.2 µM), hits mostly inhibitors; actives 12% (n = 420,000); AID 686979; further: nearly all actives have a fitted effect of over 55% in size
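Chicken DT40 Tdp1-/- cells stably complemented with human TDP1 were seeded at 400 cells/well in medium containing 20 nM camptothecin, exposed to pin-transferred compounds, and grown at 37 °C for at least 48 hr. Viability was read as ATP luminescence.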
miR-21 reporter = miR-21 reporter, rising signal | AID 2288 | HeLa miR-21 FLuc reporter, luciferase, 48 h | 340,000 tested, under 10 active | Potency, µM (titrated, usually from 38.3 µM); active = well fitted rising curve with a large enough effect; inconclusive = small, poorly fitted or top-dose-only effect; inactive = no such curve, though single readings can be large or run the other way;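 also: miR-21 action dims this reporter so a rising signal means less miR-21 action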
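HeLa cells endogenously expressing miR-21, stably carrying CMV-driven firefly luciferase with a downstream miR-21 binding site, 2000 cells/well. Titrations up to approximately 40 uM, 48 hours; luciferase luminescence read.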
uPA surface inh = inhibitors of cell surface uPA generation. cell surface uPA generation assay, qHTS. AID 540303. actives 0.31% (n = 330,000). Potency, µM (highest dose often 38.3 µM), most hits filed as inhibitors; active means well fitted inhibition curve with a large enough effect; inconclusive means small, poorly fitted or top-dose-only effect; inactive means no such curve, though single readings can be large or run the other way; tested in mouse RAW 264.7 cells; further: nearly all actives have a fitted effect of over 55% in size
TDP1 cell noCPT = qHTS for Inhibitors of human tyrosyl-DNA phosphodiesterase 1 (TDP1): qHTS in cells in absence of CPT | DT40 Tdp1-/- hTDP1 cells, no CPT, ATP luminescence, 48 h | Potency, µM (titrated, usually from 46.2 µM), actives largely listed as inhibitors | actives 15% (n = 420,000); further: nearly all actives have a fitted effect of over 55% in size
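Camptothecin absent (DMSO only). Human TDP1-complemented DT40 knockout cells, 400 cells/well, 37 °C for minimum 48 hr; ATP measured via CellTiter-Glo, 30 min dark incubation, luminescence.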
Numbers stand for hits; i = inactive; ? = inconclusive; nt = not tested or not shown; [ ] = remark or other dose. Unless noted, the call rests on the fitted dose curve; in most records, active means well fitted curve in the direction sought with a large enough effect; inconclusive means small, poorly fitted or top-dose-only effect, or another doubt; inactive means no such curve, though single readings can be large; an effect the other way counts as inactive or inconclusive.

SMILES	TDP1 inh	DT40 TDP1 CPT	miR-21 reporter	uPA surface inh	TDP1 cell noCPT
C=CCn1c(N2CCCCCC2)nc2c1c(=O)n(C)c(=O)n2C	i	?	i	i	?
COCCNC(=O)C(NC(=O)C1CCCCC1)C(C)C (stereo unspecified)	i	i	i	i	i
COc1ccccc1OC(C)C(=O)N1CCC(c2nc3ccccc3s2)CC1 (stereo unspecified)	i	?	?	nt	?
CC(C)Oc1ccc(C(=O)N2CCC(c3nc4ccccc4o3)CC2)cc1	i	?	i	nt	18µM
CCCCOc1ccc(C(=O)N2CCC(c3nc4ccccc4o3)CC2)cc1	i	?	i	nt	13µM
O=C(c1ccccc1)N1CCC(c2nc3ccccc3o2)CC1	i	?	i	nt	?
CCOc1ccccc1C(=O)N1CCC(c2nc3ccccc3o2)CC1	i	?	i	nt	21µM
Cc1cccc(OC(C)C(=O)N2CCC(c3nc4ccccc4o3)CC2)c1C (stereo unspecified)	i	?	i	nt	23µM
CCOc1ccc(NC(=O)N2CCC(c3nc4ccccc4o3)CC2)cc1	i	?	i	i	?
O=C(CNS(=O)(=O)c1ccc(F)c(Cl)c1)N1CCCCCC1	i	i	i	i	i
COC(=O)c1cc(-c2ccccc2)on1	i	i	i	i	i
O=C(Nc1cc(S(=O)(=O)N2CCCC2)ccc1Cl)c1ccncc1	i	i	nt	i	?
N#Cc1ccc(S(=O)(=O)NCCc2ccncc2)cc1	nt	?	nt	i	i
COCCOc1cc(NC(=O)c2ccccc2)c(Cl)cc1Cl	i	i	i	i	?
Cc1cccc(NC(=O)c2cccc(N3C(=O)C4C5C=CC(C6CC56)C4C3=O)c2)c1 (stereo unspecified)	i	?	i	i	15µM
CCOc1ccc(S(=O)(=O)NCCC(=O)Nc2ncccc2C)cc1	i	i	i	i	i
O=C(CCN1C(=O)S/C(=C/c2ccc(Cl)cc2)C1=O)N1CCOCC1	i	12µM	i	i	16µM
COC(=O)c1ccc(/C=C2\SC(=S)N(CCCC(=O)N3CCOCC3)C2=O)cc1	nt	i	nt	i	i
COC(=O)c1ccc(/C=C2/SC(=S)N(CCC(=O)N3CCOCC3)C2=O)cc1	nt	16µM	i	i	18µM
COCCn1c(C)cc(C(=O)COc2ncnc3ccc(Br)cc23)c1C	i	i	i	i	i
C=CCn1c(C)cc(C(=O)COc2ncnc3sccc23)c1C	i	?	i	?	16µM
C=CCn1c(C)cc(C(=O)COC(=O)c2cncc(Br)c2)c1C	i	18µM	nt	i	?
C=CCn1c(C)cc(C(=O)COC(=O)CCc2cc(OC)c(OC)c(OC)c2)c1C	i	i	nt	i	i
O=C(NCC(F)(F)F)N1CCOCC1	i	i	i	i	i
CNC(=S)N/N=C/c1ccc(-c2cc([N+](=O)[O-])ccc2Cl)o1	i	i	i	i	i
SMILES	TDP1 inh	DT40 TDP1 CPT	miR-21 reporter	uPA surface inh	TDP1 cell noCPT
O=C(CSc1nc(-c2ccccc2)nc2cc(=O)[nH]n12)Nc1ccccc1	i	i	i	nt	i
Brc1ccc(-c2cc3c(N4CCN(c5ccccc5)CC4)nccn3n2)cc1	i	i	i	nt	i
Cc1ccc(-c2cc3c(N4CCN(c5cc(C)ccc5C)CC4)nccn3n2)cc1	i	23µM	i	nt	21µM
COc1ccc(-c2noc3c2-c2nc(-c4ccccc4Cl)sc2CC3)cc1	nt	?	nt	i	?
Cc1cc(-c2n[nH]c(=S)n2/N=C/C(Cl)=C/c2ccccc2)n[nH]1	i	15µM	i	i	13µM
S=c1[nH]nc(-c2ccco2)n1/N=C/C(Cl)=C/c1ccccc1	i	?	i	i	15µM
CC(=C/c1ccccc1)/C=N/n1c(-c2ccncc2)n[nH]c1=S	i	?	i	i	16µM
Clc1ccc(OCCCCN2CCc3ccccc3C2)cc1	i	?	i	i	i
CS(=O)(=O)N(CC(=O)Nc1c(F)cccc1F)Cc1ccccc1	i	i	i	i	i
COc1ccc(-n2c(SCC(=O)N3CCCC(C)C3)nnc2-c2cccnc2)cc1 (stereo unspecified)	i	?	i	i	?
CCCCC12CN3CCN(CC(C3)/C1=N\NC(=O)c1ccccc1N)C2	i	i	i	i	i
CC1CCN2c3ccccc3CC3(C(=O)OC(C)(C)OC3=O)C2C1 (stereo unspecified)	i	?	nt	nt	10µM
CC1(C)OC(=O)C2(Cc3ccc(Br)cc3N3CCCCC32)C(=O)O1 (stereo unspecified)	i	i	nt	nt	i
Cn1c(NCc2ccccc2)nc2c1c(=O)n(Cc1ccc(Br)cc1)c(=O)n2C	i	?	i	i	?
Cn1c(=O)c2nc(NCc3ccccc3)cnc2n(C)c1=O	i	?	i	i	13µM
Cn1c(=O)c2c(nc(NCCc3ccccc3)n2Cc2ccc(Cl)cc2)n(C)c1=O	nt	12µM	i	nt	10µM
Cn1c(=O)c2c(nc(NCc3cccnc3)n2Cc2ccccc2Cl)n(C)c1=O	i	?	i	?	?
CCn1c(NCc2ccccn2)nc2c1c(=O)n(C)c(=O)n2C	i	i	i	nt	i
Cn1c(=O)c2c(nc(NCc3ccccc3)n2Cc2ccccc2)n(C)c1=O	nt	8.2µM	i	nt	4.1µM
CCOc1ccc(CCNc2nc3c(c(=O)n(C)c(=O)n3C)n2CC)cc1OCC	i	16µM	i	nt	14µM
CC(OC(=O)c1cc(Br)ccc1O)C(=O)NCc1ccc2c(c1)OCO2 (stereo unspecified)	i[0.505 µM]	i	nt	i	i
CCC(Sc1nc(C)cc(C)n1)C(=O)Nc1ccc(Cl)cn1 (stereo unspecified)	i	?	i	i	?
CCCCn1c(Nc2ccc(OC)cc2)nc2ccccc21	i	?	i	i	?
C/C(Cl)=C/Cn1c(NCCN(C)C)nc2c1c(=O)n(C)c(=O)n2C	i	i	i	i	i
Cn1c(=O)c2c(nc(NCC3CCCO3)n2Cc2ccccc2)n(C)c1=O (stereo unspecified)	i	?	i	i	?
SMILES	TDP1 inh	DT40 TDP1 CPT	miR-21 reporter	uPA surface inh	TDP1 cell noCPT
Cn1c(=O)c2c(nc(NCc3ccccc3)n2Cc2ccc(Cl)c(Cl)c2)n(C)c1=O	nt	8.2µM	?	nt	7.3µM
C/C(Cl)=C\Cn1c(Nc2ccccc2)nc2c1c(=O)n(C)c(=O)n2C	i	11µM	i	i	?
CC(NC(=O)CCn1c(=S)[nH]c2ccsc2c1=O)c1ccccc1 (stereo unspecified)	i	i	i	i	i
CCn1c([N+](=O)[O-])nc2c1c(=O)[nH]c(=O)n2C	i	2.3µM	?	10µM	1.8µM
CC1(C(=O)O)CCC(C(N)=O)C1(C)C (stereo unspecified)	i	i	i	i	i
CCOc1ccc(OCC)c(-c2c(=O)n(OCc3ccccc3C(=O)OC)c3ccccc3[n+]2[O-])c1	i	13µM	i	nt	13µM
